# Permeability data for macrocyclic peptides

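Conditions beyond the assay type are not listed; see the original paper. Other peptides of the study may be missing here. Peptides that the database sets to -10, its floor, are left out.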

PAMPA measures passive passage through an artificial lipid membrane.
Permeability is given as log10 of P in cm/s; higher (less negative) is more permeable.

| structure (SMILES) | PAMPA (log10 cm/s) |
|---|---|
| CC(C)C[C@@H]1C(=O)N2CCC[C@@H]2C(=O)N(C)[C@@H](CC(C)C)C(=O)N[C@@H](Cc2ccccc2)C(=O)N2CCC[C@@H]2C(=O)N(C)[C@@H](C)C(=O)N[C@H](CC(C)C)C(=O)N1C | -5.07 |
| CC(C)C[C@@H]1NC(=O)[C@@H](C)N(C)C(=O)[C@@H]2CCCN2C(=O)[C@H](Cc2ccccc2)NC(=O)[C@H](CC(C)C)N(C)C(=O)[C@H]2CCCN2C(=O)[C@@H](CC(C)C)N(C)C1=O | -5.62 |
| CC(C)C[C@@H]1NC(=O)CN(Cc2ccccc2)C(=O)[C@@H](C)N(C)C(=O)[C@H]2CCCN2C(=O)[C@H](Cc2ccccc2)NC(=O)CN(Cc2ccccc2)C(=O)[C@@H]2CCCN2C1=O | -5.63 |
| CC(C)C[C@H]1NC(=O)[C@H](C)NC(=O)[C@H]2CCCN2C(=O)[C@H](Cc2ccccc2)NC(=O)CN(Cc2ccccc2)C(=O)[C@@H]2CCCN2C(=O)[C@H](CC(C)C)N(C)C1=O | -6.02 |
| CC(C)C[C@@H]1NC(=O)[C@@H](C)NC(=O)[C@@H]2CCCN2C(=O)[C@H](Cc2ccccc2)NC(=O)[C@H](CC(C)C)N(C)C(=O)[C@H]2CCCN2C(=O)[C@@H](CC(C)C)N(C)C1=O | -6.16 |
| CCCN1CC(=O)N[C@H](CC(C)C)C(=O)N[C@@H](CC(C)C)C(=O)N2CCC[C@@H]2C(=O)N(C)[C@@H](CC(C)C)C(=O)N[C@@H](Cc2ccccc2)C(=O)N2CCC[C@H]2C1=O | -5.07 |
| CC(C)C[C@@H]1NC(=O)[C@H](C)N(C)C(=O)[C@@H]2CCCN2C(=O)[C@H](Cc2ccccc2)NC(=O)CN(Cc2ccccc2)C(=O)[C@H]2CCCN2C(=O)[C@H](CC(C)C)N(C)C1=O | -5.58 |
| CC(C)C[C@H]1C(=O)N[C@@H](Cc2ccccc2)CC(=O)N2CCC[C@@H]2C(=O)N(C)[C@@H](CC(C)C)C(=O)N[C@@H](Cc2ccccc2)C(=O)N2CCC[C@@H]2C(=O)N(C)[C@H](C)C(=O)N1C | -5.93 |
| CC(C)C[C@@H]1NC(=O)[C@H]2CCCN2C(=O)C[C@H](Cc2ccccc2)NC(=O)[C@@H](CC(C)C)N(C)C(=O)[C@H](C)N(C)C(=O)[C@@H]2CCCN2C(=O)[C@H](Cc2ccccc2)NC1=O | -5.90 |
| CC(C)C[C@@H]1NC(=O)[C@H]2CCCN2C(=O)[C@@H](CC(C)C)N(C)C(=O)[C@H](CC(C)C)NC(=O)[C@H](C)N(C)C(=O)[C@H]2CCCN2C(=O)[C@H](Cc2ccccc2)NC1=O | -5.72 |
| CCCN1CC(=O)N(C)[C@H](CC(C)C)C(=O)N[C@H](CC(C)C)C(=O)N2CCC[C@H]2C(=O)N(Cc2ccccc2)CC(=O)N[C@@H](Cc2ccccc2)C(=O)N2CCC[C@H]2C1=O | -5.21 |
| CCCN1CC(=O)N(C)[C@H](CC(C)C)C(=O)N[C@@H](Cc2ccccc2)CC(=O)N2CCC[C@@H]2C(=O)N[C@@H](CC(C)C)C(=O)N[C@@H](Cc2ccccc2)C(=O)N2CCC[C@H]2C1=O | -6.69 |

Excerpt, the opening 2 entries:

{"smiles": "CC(C)C[C@@H]1C(=O)N2CCC[C@@H]2C(=O)N(C)[C@@H](CC(C)C)C(=O)N[C@@H](Cc2ccccc2)C(=O)N2CCC[C@@H]2C(=O)N(C)[C@@H](C)C(=O)N[C@H](CC(C)C)C(=O)N1C", "PAMPA (log10 cm/s)": "-5.07"}
{"smiles": "CC(C)C[C@@H]1NC(=O)[C@@H](C)N(C)C(=O)[C@@H]2CCCN2C(=O)[C@H](Cc2ccccc2)NC(=O)[C@H](CC(C)C)N(C)C(=O)[C@H]2CCCN2C(=O)[C@@H](CC(C)C)N(C)C1=O", "PAMPA (log10 cm/s)": "-5.62"}

Source: CycPeptMPDB (Li et al. 2023), which took these values from Townsend et al. 2020, doi:10.26434/chemrxiv.13335941.v1.